Values quoted from earlier work as cited in US20060229261A1, “Acarbose methods and formulations for treating chronic constipation” (priority 2005, published 2006).

Settings: in vivo; cited from earlier work

Structure (SMILES): C[C@H]1O[C@H](O[C@H]2[C@H](O)[C@@H](O)[C@@H](O[C@H]3[C@H](O)[C@@H](O)C(O)O[C@@H]3CO)O[C@@H]2CO)[C@H](O)[C@@H](O)[C@@H]1N[C@H]1C=C(CO)[C@@H](O)[C@H](O)[C@H]1O (stereo partly shown) [acarbose]
- oral dose absorbed as parent drug or active metabolite: about 2%
